The text below walks through data of patent publication US20240189287A1, “PERIPHERALLY RESTRICTED CB1 RECEPTOR BLOCKERS AND USES THEREOF” (BIONANOSIM (BNS) LTD, priority 2021, published 2024).

This series concerns MDR1-MDCKII cells. The series is described as follows: MDR1-MDCK II cell permeation assay (bi-directional permeability, P-gp efflux). Type of series: in vitro ADME. To be noted: 2 μM, A to B, 2.5 hours.

In the case of `CS(=O)(=O)CC(=O)NC1CCCOc2c1nn(-c1ccccc1Cl)c2-c1ccc(Cl)cc1` (stereo not shown), the “MDR1 Papp A:B (×10^−6 cm/s)” value is 8.86 ×10^−6 cm/s.
